# Source: PubChem BioAssay AID504523 (Broad Institute, 2011)
# Amino acid sequences for entries named in this document (tags omitted).
# UniProt Q14145, whole entry, looked up: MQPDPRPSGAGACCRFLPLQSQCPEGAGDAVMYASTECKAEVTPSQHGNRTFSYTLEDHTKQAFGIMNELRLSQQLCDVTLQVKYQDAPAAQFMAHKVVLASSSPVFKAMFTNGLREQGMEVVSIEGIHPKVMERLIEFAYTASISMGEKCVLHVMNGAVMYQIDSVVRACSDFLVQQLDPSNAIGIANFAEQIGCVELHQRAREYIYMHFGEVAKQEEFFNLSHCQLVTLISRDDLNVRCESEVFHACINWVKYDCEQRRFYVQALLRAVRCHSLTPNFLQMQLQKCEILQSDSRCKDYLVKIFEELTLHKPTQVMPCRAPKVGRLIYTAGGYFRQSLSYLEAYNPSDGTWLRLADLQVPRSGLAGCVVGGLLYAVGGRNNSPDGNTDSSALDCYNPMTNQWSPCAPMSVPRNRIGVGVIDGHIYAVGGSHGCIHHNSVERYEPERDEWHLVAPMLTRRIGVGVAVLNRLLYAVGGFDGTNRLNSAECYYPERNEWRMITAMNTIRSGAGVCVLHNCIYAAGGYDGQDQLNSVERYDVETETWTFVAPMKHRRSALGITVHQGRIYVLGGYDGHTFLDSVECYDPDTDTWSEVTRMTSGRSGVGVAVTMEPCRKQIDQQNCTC
# Only a part is listed here, and it is no random draw. Calls of active or inactive are those of the source. No stated cut-off is given here; in the data, active means inhibition above about 12%; inconclusive means no clear call, values can overlap the other calls; inactive means below about 7.3%.
# Biological target: Kelch-like ECH-associated protein 1 (Homo sapiens) (UniProt Q14145)
# Test: disruptors of Keap1 binding to Nrf2 – biochemical, fluorescence polarization, single point, primary screen (AID 504523);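 further: human Keap1 Kelch domain with fluorescein labeled Nrf2 9mer peptide probe; 0% = neutral control wells and 100% = peptide positive control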
# Conditions: Keap1 Kelch-Nrf2 peptide fluorescence polarization, 1536-well; at 9.4 µM; stronger effect = higher value
row,SMILES,inhibition
1,COC(=O)C1(C)COP(=O)(Nc2ccccc2)OC1 (centres undefined),inactive: 0.264%
2,O=[N+]([O-])c1cccc(NC2=NCC(CBr)S2)c1 (centres undefined),inactive: -4.59%
3,O=C(O)CNc1ccc([As](=O)(O)O)cc1,inactive: 2.28%
4,CC(C)(C)C(=O)NC(Sc1ccncn1)C(Cl)(Cl)Cl (centres undefined),inactive: -27.9%
5,O=[N+]([O-])c1ncn(CCn2ncnc2[N+](=O)[O-])n1,inactive: 3.91%
6,O=C(Nc1cc([As](=O)(O)O)ccc1O)c1ccccc1,inactive: 1.03%
7,O=P1(N(CCCl)CCCl)OCCCS1 (centres undefined),inactive: -0.79%
8,CN(C)C(=O)OCCc1n(C)cc[n+]1C,inactive: -1.23%
9,CC(C)=N/N=C(\N)N[N+](=O)[O-],inactive: -1.2%
10,CC1CCN(C(=O)Oc2c(Cl)cc(Cl)c3cccnc23)CC1,inactive: 3.42%
11,C[N+]1=C2C=CC=CC=C2SC12C([N+](=O)[O-])=CC([N+](=O)[O-])=C[C-]2[N+](=O)[O-] (centres undefined),inactive: -2.07%
12,Nc1ccc([As](=O)(O)c2ccc(N)cc2)cc1,inactive: -2.68%
13,CCN(/C(=N/P(=O)(N1CCOCC1)N1CCOCC1)N1CCOCC1)c1ccc(OC)cc1,inactive: -1.27%
14,CC(=O)N1C2C3N(C(C)=O)C1C1N(C(C)=O)C(C(N1C(C)=O)N3C(C)=O)N2C(C)=O,inactive: -0.467%
15,O=[N+]([O-])c1cccc2n[nH]nc12,inactive: -3.31%
16,O=[N+]([O-])c1cc([N+](=O)[O-])c(CCNc2ccccc2)c([N+](=O)[O-])c1,inactive: -1.93%
17,CCc1nc2c(n1)c1c(non1O)c1c2no[n+]1[O-],inactive: -0.179%
18,Cc1ccc(NP(=O)(Oc2ccccc2)Oc2ccccc2)nc1,inactive: 4.19%
19,c1nnnn1CCn1cnnn1,inactive: -0.728%
20,O=P(Nc1nccs1)(c1ccccc1)c1ccccc1,inactive: 0.691%

row,SMILES,inhibition
1,CC(C)C(=O)NC(Sc1ccccc1)C(Cl)(Cl)Cl (centres undefined),inactive: -3.08%
2,C(Cc1nn[nH]n1)Cc1nn[nH]n1,inactive: 0.0282%
3,Nc1ccc([As](=O)(O)c2ccc([N+](=O)[O-])cc2)cc1,inactive: -4.81%
4,O=C(OC1CN2CCC1CC2)c1cccc(Cl)c1 (centres undefined),inactive: -6.03%
5,O=[N+]([O-])c1ncn(CCn2cnc([N+](=O)[O-])n2)n1,inactive: -2.24%
6,CC(=O)NC(SC(=S)N(C)C)C(Cl)(Cl)Cl (centres undefined),inactive: -1.27%
7,O=[N+]([O-])c1ccc(O)c(/C=N/Nc2ccc([N+](=O)[O-])cc2[N+](=O)[O-])c1,inactive: -0.351%
8,O=[As](O)(c1ccccc1)c1ccc(O)cc1,inactive: 0.887%
9,C[C@H]1OP(=O)(Oc2ccccc2)[C@H](O)[C@H](O)[C@H]1N=[N+]=[N-] (some centres undefined),inactive: -1.94%
10,O=P(Nc1nc2ccccc2s1)(c1ccccc1)c1ccccc1,inactive: -1.82%
11,COc1ccc(N)c([N+](=O)[O-])c1[N+](=O)[O-],inactive: 4.68%
12,CN(C)C1(CNC(=O)c2ccc(Cl)c(S(N)(=O)=O)c2)CCCCC1,inactive: -0.424%
13,O=P(Nc1ccccn1)(c1ccc(Br)cc1)c1ccc(Br)cc1,inactive: -2.26%
14,O=c1c2cc([N+](=O)[O-])ccc2[nH]c2c([N+](=O)[O-])cc([N+](=O)[O-])cc12,inactive: -7.17%
15,CN(C)C(=O)Oc1noc2ccccc12,inactive: -1.36%
16,CC(NC(=O)COC(=O)C(O)(c1ccccc1)c1ccccc1)c1ccccc1 (centres undefined),inactive: 2.43%
17,Cc1ccccc1OP(=O)(Nc1ccccn1)Oc1ccccc1C,inactive: 3.85%
18,Cc1ccc(OP(=O)(Nc2ccccn2)Oc2ccc(C)cc2)cc1,inactive: 2.53%
19,CC(=O)NC(SC(=S)N(CC(C)C)CC(C)C)C(Cl)(Cl)Cl (centres undefined),inactive: 1.35%
20,COC(=O)c1cc2c(s1)N=C(c1ccccc1)N(C)P2(=O)N1CCOCC1 (centres undefined),inactive: 0.263%

row,SMILES,inhibition
1,CCC(=O)N1C2C3N(C(=O)CC)C1C1N(C(=O)CC)C(C(N1C(=O)CC)N3C(=O)CC)N2C(=O)CC,inactive: -3.71%
2,O=C(OC1CN2CCC1CC2)c1ccccc1 (centres undefined),inactive: -0.822%
3,O=P1(N(CCCl)CCCl)OCCC2CCCCN21 (centres undefined),inactive: -4.34%
4,O=C(NC1CCS(=O)(=O)C1)NP(=S)(Oc1ccccc1)Oc1ccccc1 (centres undefined),inactive: 3.5%
5,CCNC(=S)/N=C(\N)N[N+](=O)[O-],inactive: -1.48%
6,Cc1ccc(NP(=O)(Oc2cccc(C)c2)Oc2cccc(C)c2)nc1,inactive: 4.97%
7,c1ccc(-c2nn[nH]n2)c(-c2nn[nH]n2)c1,inactive: -3.1%
8,CC(=O)Nc1ccc(Oc2c([N+](=O)[O-])cc([N+](=O)[O-])cc2[N+](=O)[O-])cc1,inactive: -3.19%
9,CC(=O)Nc1ccc([As](=O)(O)O)c(O)c1,inactive: -4.51%
10,COC(=O)C1(C)COP(=O)(NCc2ccccc2)OC1 (centres undefined),inactive: 1.06%
11,CC(=O)c1ccc(N2CC2c2ccncc2)cc1 (centres undefined),inactive: 3.29%
12,N#C/C(=C\c1ccc(N(CCBr)CCBr)cc1)C(N)=O,inactive: -1.97%
13,C[C@H]1OP(=O)(Oc2ccccc2)C[C@@H]2O[C@@H]21 (some centres undefined),inactive: -1.16%
14,C[C@@H]1C=CCP(=O)(Oc2ccccc2)O1 (some centres undefined),inactive: -1.58%
15,Cc1ccccc1CN(C)C(=O)COC(=O)C(O)(c1ccccc1)c1ccccc1,inactive: -0.508%
16,CCc1cc(O)c([N+](=O)[O-])c(C)c1[N+](=O)[O-],inactive: -2.45%
17,CC(C)(C)C(=O)NC(Sc1ccccc1)C(Cl)(Cl)Cl (centres undefined),inactive: -0.134%
18,CCOc1ccc(C2=NCC(CBr)S2)cc1 (centres undefined),inactive: -2.5%
19,O=P1(Nc2nc3ccc(Cl)cc3s2)COc2ccccc2O1 (centres undefined),inactive: -2.4%
